# Reference: PubChem BioAssay AID624288 (National Center for Advancing Translational Sciences (NCATS), 2012)
# Only a part is listed here, and it is no random draw. Some tests of the compounds listed are not included; inactive here does not mean inactive elsewhere. Records with an inconclusive call do not appear. Calls of active or inactive are those of the source. Calls follow the shape of the full dose curve; cell line not stated here.
# Test: qHTS for Antagonists of gsp, the Etiologic Mutation Responsible for Fibrous Dysplasia/McCune-Albright Syndrome: qHTS; also: nearly all actives have a fitted effect of over 65% in size
# Details: gsp-mutant cells, cAMP HTRF, 30 min; at 76.9 µM (top of the series)
# % is scaled to controls: 0 for no effect and ±100 for the full control effect.
row,Structure (SMILES),"activity change, negative = inhibition"
1,CN(C)C1(CNC(=O)c2ccc(Br)cc2)CCCCC1,inactive: 1.82%
2,COc1cc(C(=O)NCC2(N(C)C)CCCCC2)c([N+](=O)[O-])cc1OC,inactive: 4.13%
3,COc1ccc(Cl)cc1C(=O)NCC1(N(C)C)CCCCC1,inactive: 15.7%
4,COc1cccc(C(=O)NCC2(N3CCCCC3)CCCCC2)c1,inactive: 10%
5,O=C(NCC1(N2CCCCC2)CCCCC1)c1cccc(Cl)c1,inactive: 3.14%
6,O=C(OC1CN2CCC1CC2)C(CO)(c1ccccc1)c1ccccc1 (stereo not given),inactive: 3.91%
7,COc1ccc(Br)c(C(=O)NCC2(N3CCCCC3)CCCCC2)c1,inactive: 10.8%
8,O=C(OCCN1CCCC1)C(O)(c1ccccc1)c1ccccc1,inactive: 0.71%
9,CC(C)Oc1ccc(C(=O)NCC2(N(C)C)CCCCC2)cc1,inactive: 12.2%
10,CN(C)c1cccc(C(=O)NCC2(N(C)C)CCCCC2)c1,inactive: -2.74%
11,O=C(NCC1(N2CCCCC2)CCCCC1)c1cc([N+](=O)[O-])ccc1Cl,inactive: -13%
12,CN1[C@@H]2CC[C@H]1CC(OC(=O)C(O)(c1ccccc1)c1ccccc1)C2 (stereo not given in full),inactive: 3.68%
13,COc1cc(SC)ccc1C(=O)NCC1(N(C)C)CCCCC1,inactive: 4.31%
14,CCN(CC)CC(C)C(C)OC(=O)C(O)(c1ccccc1)c1ccccc1 (stereo not given),inactive: 4.83%
15,CC(C)N1C(=O)CC2(CCN(CCOC(=O)C(O)(c3ccccc3)c3ccccc3)CC2)C1=O,inactive: -21.8%
16,Cc1ccc(C(=O)NCC2(N3CCCCC3)CCCCC2)cc1,inactive: 11.6%
17,CN(C)c1ccc(C(=O)NCC2(N(C)C)CCCCC2)cc1,inactive: -3.24%
18,CN(C)C1CCCC1OC(=O)C(O)(c1ccccc1)c1ccccc1 (stereo not given),inactive: -0.859%
19,Cc1ccccc1C(=O)NCC1(N2CCCCC2)CCCCC1,inactive: 9.8%
20,O=C(NCC1(N2CCCCC2)CCCCC1)c1cc(F)c(F)cc1Cl,inactive: -2.84%
21,C=CCN1CCN(CCOC(=O)C(O)(c2ccccc2)c2ccccc2)CC1,inactive: 8.23%
22,COc1ccc(C(=O)NCC2(N(C)C)CCCCC2)cc1,inactive: 11.5%
23,O=C(NCC1(N2CCCCC2)CCCCC1)c1cccc(Br)c1,inactive: 6.83%
24,CCN1CCCC(OC(=O)C2(O)c3ccccc3C=Cc3ccccc32)C1 (stereo not given),inactive: 13.2%
25,Cc1cc(C(=O)NCC2(N3CCCCC3)CCCCC2)ccc1[N+](=O)[O-],inactive: 9.11%
